# In patent US8293736B2, “Purine compounds selective for PI3K P110 delta, and methods of use” (F. Hoffmann la Roche AG, priority 2010, dated 2012):
# Sequences of proteins named here, by UniProt entry; tags and fusion partners are left off. A change or cut given only in a name is not applied to a line headed by its entry.
# UniProt O00329: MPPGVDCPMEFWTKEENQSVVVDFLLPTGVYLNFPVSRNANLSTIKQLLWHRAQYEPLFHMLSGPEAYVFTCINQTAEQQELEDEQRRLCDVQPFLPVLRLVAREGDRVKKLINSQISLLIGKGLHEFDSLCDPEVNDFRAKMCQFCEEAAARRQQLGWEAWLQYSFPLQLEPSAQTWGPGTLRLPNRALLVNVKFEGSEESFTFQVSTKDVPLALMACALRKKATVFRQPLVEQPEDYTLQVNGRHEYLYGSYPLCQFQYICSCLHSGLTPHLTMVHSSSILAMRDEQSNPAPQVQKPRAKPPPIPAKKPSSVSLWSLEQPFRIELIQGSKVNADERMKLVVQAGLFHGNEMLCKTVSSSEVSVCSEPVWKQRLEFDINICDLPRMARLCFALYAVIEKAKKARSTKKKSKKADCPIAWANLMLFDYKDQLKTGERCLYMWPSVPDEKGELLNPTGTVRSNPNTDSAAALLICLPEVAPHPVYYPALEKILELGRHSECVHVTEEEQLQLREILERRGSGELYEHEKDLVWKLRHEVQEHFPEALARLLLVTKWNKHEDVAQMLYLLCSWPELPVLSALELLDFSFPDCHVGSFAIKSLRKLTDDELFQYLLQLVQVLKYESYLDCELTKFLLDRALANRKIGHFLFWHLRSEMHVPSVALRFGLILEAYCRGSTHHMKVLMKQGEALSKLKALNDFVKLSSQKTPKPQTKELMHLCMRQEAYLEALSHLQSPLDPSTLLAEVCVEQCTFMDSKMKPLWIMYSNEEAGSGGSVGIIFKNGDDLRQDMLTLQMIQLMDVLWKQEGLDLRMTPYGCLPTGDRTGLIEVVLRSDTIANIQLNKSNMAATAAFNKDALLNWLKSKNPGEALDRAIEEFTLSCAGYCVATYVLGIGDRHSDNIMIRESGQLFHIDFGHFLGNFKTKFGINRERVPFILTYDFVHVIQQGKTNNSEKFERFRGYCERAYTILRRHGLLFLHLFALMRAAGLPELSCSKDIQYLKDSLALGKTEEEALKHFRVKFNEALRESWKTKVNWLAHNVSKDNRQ
# UniProt P42336, whole entry, species assumed: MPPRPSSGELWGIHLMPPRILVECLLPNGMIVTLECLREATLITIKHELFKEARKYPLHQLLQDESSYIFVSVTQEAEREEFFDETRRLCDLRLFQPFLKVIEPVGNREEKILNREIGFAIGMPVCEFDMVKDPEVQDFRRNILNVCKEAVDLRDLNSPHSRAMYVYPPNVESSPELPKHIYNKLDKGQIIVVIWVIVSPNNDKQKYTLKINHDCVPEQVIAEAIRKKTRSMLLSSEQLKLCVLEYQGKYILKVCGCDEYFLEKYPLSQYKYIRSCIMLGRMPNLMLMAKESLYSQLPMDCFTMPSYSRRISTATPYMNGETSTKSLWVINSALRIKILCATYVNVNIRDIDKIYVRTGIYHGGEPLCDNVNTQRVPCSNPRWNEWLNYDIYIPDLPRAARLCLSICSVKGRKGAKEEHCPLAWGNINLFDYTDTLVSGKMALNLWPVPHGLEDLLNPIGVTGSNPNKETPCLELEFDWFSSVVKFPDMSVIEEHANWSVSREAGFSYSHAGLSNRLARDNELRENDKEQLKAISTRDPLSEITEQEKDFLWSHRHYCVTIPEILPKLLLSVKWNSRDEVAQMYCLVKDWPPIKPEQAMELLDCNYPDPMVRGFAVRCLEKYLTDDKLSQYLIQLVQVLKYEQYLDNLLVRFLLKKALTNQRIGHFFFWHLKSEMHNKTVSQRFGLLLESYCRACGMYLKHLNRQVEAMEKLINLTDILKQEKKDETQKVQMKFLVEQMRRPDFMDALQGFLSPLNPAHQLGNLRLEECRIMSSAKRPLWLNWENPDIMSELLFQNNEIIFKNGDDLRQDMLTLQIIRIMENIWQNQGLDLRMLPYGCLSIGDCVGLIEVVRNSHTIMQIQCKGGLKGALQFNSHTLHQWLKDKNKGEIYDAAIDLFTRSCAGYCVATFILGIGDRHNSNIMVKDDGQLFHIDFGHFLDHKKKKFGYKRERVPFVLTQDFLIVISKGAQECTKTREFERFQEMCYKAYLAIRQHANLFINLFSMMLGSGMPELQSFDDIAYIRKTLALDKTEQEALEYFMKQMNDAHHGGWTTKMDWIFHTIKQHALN
# Tests used:
# p110 delta = molecular target: T1, p110 delta (Homo sapiens, UniProt O00329); assay: PI3K isoform inhibition assay (fluorescence polarization), p110 delta; type: biochemical; details: Ki apparent, Morrison equation; 25 μM ATP, 10 μM PIP2
# T1 construct: purchased Upstate Group, Millipore; Dundee, UK
# Method: (§1) Determination of the activity of PI3 kinase activity of Formula I compounds is possible by a number of direct and indirect detection methods.
# (§2) PI3K enzymatic activity was assayed by measuring the amount of product phosphatidylinositol 3,4,5-phosphate (PIP3) formed from substrate 4,5 phosphatidylinositol 4,5-phosphate (PIP2) using a fluorescence polarization displacement assay. The decrease in fluorescence polarization of a fluorescent PIP3 probe is measured as it is displaced from a PIP3-binding protein GRP-1 detector by PI3K-catalyzed product. […] The kinase reactions were initiated by the addition of 40 ng/mL p110α/p85α, 300 ng/mL p110β/p85α, 40 ng/mL p110γ, or 40 ng/mL p110δ/p85α (Upstate Group, Millipore; Dundee, UK), and 10 μM PIP2 (Echelon Biosciences) to the wells. […] After 60 minutes of incubation at room temperature to allow equilibration of labeled and unlabeled PIP3 binding, the parallel and perpendicular components of the fluorescence emissions from each sample were measured at an excitation wavelength of 530 nm and an emission wavelength of 590 nm using an Envision fluorescent plate reader with a rhodamine filter (PerkinElmer Life and Analytical Sciences; Wellesley, Mass.). […]
# The Formula I compound was serially diluted in 100% DMSO. […] IC50 values were subsequently determined using sigmoidal dose-response curve fit (variable slope). […]
# p110 alpha = molecular target: T2, p110 alpha (Homo sapiens, UniProt P42336); assay: PI3K isoform inhibition assay (fluorescence polarization), p110 alpha; type: biochemical; details: delta/alpha selectivity ratio
# T2 construct: purchased Upstate Group, Millipore; Dundee, UK
# Method: as §1
# as §2, with “Mass.). The assay is capable of detecting 0.1-2.0 μM PIP3 product.” for “Mass.).”
smiles,measurement,setting,value
"CCc1nc2ccccc2n1-c1nc(N2CCOCC2)c2nc(OC3CN(C(=O)C(C)C)C3)n(C)c2n1 [Compound 122, 1-(3-(2-(2-ethyl-1H-benzo[d]imidazol-1-yl)-9-methyl-6-morpholino-9H-purin-8-yloxy)azetidin-1-yl)-2-methylpropan-1-one]",Ki,p110 delta,0.576 nM
same,Ki p110 alpha/ Ki p110 delta,p110 alpha,175
